Consider two compounds from US20250099431A1, “GLP-1R MODULATING COMPOUNDS” (priority 2020, published 2025).

Chains of the proteins cited; added tags and fusions are not shown. Residues count along the entry.
UniProt P43220, 24-463: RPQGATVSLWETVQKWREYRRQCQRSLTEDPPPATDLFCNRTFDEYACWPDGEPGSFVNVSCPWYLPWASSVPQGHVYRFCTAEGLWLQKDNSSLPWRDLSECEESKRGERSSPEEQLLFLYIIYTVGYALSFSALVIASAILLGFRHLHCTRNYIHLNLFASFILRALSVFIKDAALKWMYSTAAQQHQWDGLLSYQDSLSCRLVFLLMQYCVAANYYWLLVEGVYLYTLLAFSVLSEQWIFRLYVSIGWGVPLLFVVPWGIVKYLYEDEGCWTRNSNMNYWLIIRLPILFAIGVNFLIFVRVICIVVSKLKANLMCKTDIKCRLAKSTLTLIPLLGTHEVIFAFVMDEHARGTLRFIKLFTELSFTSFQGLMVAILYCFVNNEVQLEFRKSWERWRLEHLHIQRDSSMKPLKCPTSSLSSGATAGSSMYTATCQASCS

Read-outs that look alike come from different tables or passages of the source.

The assay deals with GLP-1R (Homo sapiens (Human), UniProt P43220). The assay can be described thus: GLP-1R activation: cAMP increase in CHO cells stably expressing GLP-1R. The class given is cell-based. The following applies: 10 point dose response, 30 minutes incubation at 37° C. As to the method:
GLP-1R activation by a compound of the present disclosure was quantified by measuring cAMP increase in CHO cells stably expressing GLP-1R (MultiSpan product #C1267-1a). […] The cells were then incubated overnight at 37° C., 5% CO2. […] 1% BSA (Rockland Immunochemicals product #BSA-1000)). Following the medium change, the cells were incubated for 1 hour at 37° C., 5% CO2. The tested GLP-1 compound was added to the cells in a 10 point dose response followed by a 30 minutes incubation at 37° C., 5% CO2. cAMP concentration increase was then detected using Cisbio's cAMP Gs Dynamic Kit (product #62AM4PEC) according to the manufacturer's protocol. The response was plotted against the log of the agonist concentration and fitted to a sigmoidal equation to determine the EC50.

In the case of `COCCn1c(Cc2cc(F)c(-c3cccc4c3OC(C)(c3ccc(Cl)cc3F)O4)cc2F)nc2ccc(C(=O)O)cc21` (centres unmarked) [Example 113, 2-[[4-[2-(4-chloro-2-fluoro-phenyl)-2-methyl-1,3-benzodioxol-4-yl]-2,5-difluoro-phenyl]methyl]-3-(2-methoxyethyl) benzimidazole-5-carboxylic acid], the EC50 (in general, the concentration needed to bring the measured effect to its halfway point) (cAMP increase, read-out: EC50) amounted to 2.8 nM.

`COCCn1c(Cc2cc(F)c(-c3cccc4c3OC(C)(c3ccc(Cl)cn3)O4)cc2F)nc2ccc(C(=O)O)cc21` (centres unmarked) [Example 114, 2-[[4-[2-(5-chloro-2-pyridyl)-2-methyl-1,3-benzodioxol-4-yl]-2,5-difluoro-phenyl]methyl]-3-(2-methoxyethyl) benzimidazole-5-carboxylic acid] returned an EC50 (EC50, cAMP increase) of 11 nM.
